Experimental findings from patent publication US20190023806A1 (QOOLABS, published 2019) are described below.

Sequences of proteins named here, by UniProt entry; tags and fusion partners are left off. A line that says so, or that is headed by a name, gives the form on record, which may keep a tag or linker. Residues count along the entry.
UniProt P69905, 2-142 limits assumed, stated change not applied, chain 1 of 2: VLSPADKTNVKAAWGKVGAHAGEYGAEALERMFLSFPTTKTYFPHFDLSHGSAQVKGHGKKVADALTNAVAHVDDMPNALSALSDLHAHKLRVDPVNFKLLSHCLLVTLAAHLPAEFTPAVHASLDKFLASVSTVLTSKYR
hemoglobin A2 (alpha2 delta2), UniProt P02042, 2-147 limits assumed, stated change not applied, chain 2 of 2: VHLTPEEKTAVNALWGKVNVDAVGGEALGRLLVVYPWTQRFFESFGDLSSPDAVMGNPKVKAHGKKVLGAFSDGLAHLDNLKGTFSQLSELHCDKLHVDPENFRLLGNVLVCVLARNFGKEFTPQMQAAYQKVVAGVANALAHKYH
hemoglobin S (alpha2 betaS2), UniProt P68871, other isoform, or with tags, fused parts or gaps limits assumed, chain 2 of 2: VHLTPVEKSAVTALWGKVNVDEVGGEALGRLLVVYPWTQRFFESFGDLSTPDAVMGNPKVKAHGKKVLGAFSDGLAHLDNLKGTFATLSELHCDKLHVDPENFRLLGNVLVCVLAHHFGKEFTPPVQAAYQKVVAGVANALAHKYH
hemoglobin A (alpha2 beta2), UniProt P68871, 2-147 limits assumed, chain 2 of 2: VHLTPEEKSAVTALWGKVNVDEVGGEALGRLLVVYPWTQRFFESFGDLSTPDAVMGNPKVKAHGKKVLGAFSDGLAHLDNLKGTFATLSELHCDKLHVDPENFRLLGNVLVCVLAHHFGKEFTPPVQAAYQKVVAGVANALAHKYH

Holding throughout (assay): direct ELISA: hemoglobin coated on the plate, antibody produced by the clone applied (concentration not given), HRP goat anti-llama antibody
The target in assay [1] is hemoglobin A2 (alpha2 delta2) (human, UniProt P69905 2-142; P02042 2-147). The protocol: (§1) In vitro screening was performed using biotinylated peptides specific to each variants and magnetic beads cell sorting. Multiple positive clones for HbA, HbS, and HbA2 were identified. […] Hemoglobin was coated on the plate directly and antibodies produced by each clone were applied and detected with HRP goat anti-llama antibody.

The target in assay [2] is hemoglobin S (alpha2 betaS2) (human, UniProt P69905 2-142; P68871 2-147, Native tetramer alpha2 betaS2 with heme; one copy of each chain is given.). The protocol:
as §1

For assay [3], the target named is hemoglobin A (alpha2 beta2) (human, UniProt P69905 2-142; P68871 2-147). The protocol:
as §1

B1: 172P2D9 (VHH)
VHH: QLVESGGGLVQDGDSLRLACAASATTVDINSMGWYRQAPGKQRELVASINTRGCTVYTDSVEGRFIIYRDDTKNTLYLQMYSLKSEDTAVYYCGADWRTNGYFYWGQGTQVIVS
notes: also called Clone 172P2D9
Take B1: the binding result in assay [1], in assay [2] and in assay [3] was “binds” throughout.

B2: 173B10 (VHH)
VHH: QVQLVESGGGLVQAGGSLRLSCVASGKIFSPNDMGWYRQVPGKQRELVAAMSSRGFTNYAESLTDRFTVSRDNAKNTVYLQMNGLKPDDTAVYYCYLWTAGDNFWGQGTQVTVS
notes: also called Clone 173B10
As to B2, the binding result in assay [2] is reported as “binds”.

B3: Clone 172P2E8 (VHH)
VHH: QVQLVESGGGLVQDGGSLRLACVASRSTRDINSMGWYRQAPGEQREFVASIGWQGATVYADSVEGRFTISRDDAKNTLYLQMNSLKPEDTAVYYCGADWRTYGYFYWGQGTQVTVS
notes: Any tag from the phage display vector is not specified for this assay
B3: the binding result in assay [1] and in assay [3] was “binds” in each case.

B4: 175G2 (VHH)
VHH: QVQLVESGGGLVQAGGSLRLSCAASGIIFNTHTMAWYRQAPGKQRELVGRITFTGRTIYILDAVKGRFSISRNTADNTLTLQMNSLKPEDTAVYYCQTRNIRNNNENWGQGTQVTVS
notes: also called Clone 175G2
For B4, the binding result in assay [1] is listed as “binds”.

B5: 175H11 (VHH)
VHH: QVQLVESGGGLVQAGGSLRLSCAASGRTLSRYAISWFRQAPGKEREFVGRITWSGSTNIADSVKGRFTISRDNAKNTVYLQMNSLKPEDTAVYYCAAAPYGTMSYDYWGQGTQVSVS
notes: also called Clone 175H11
As to B5, the binding result in assay [1] is “binds”.

B6: 173B1 (VHH)
VHH: QVQLVESGGGLVQAGGSLRLSCVASGRIFSPNDMGWYRQVPGKQRELVAGMSSRGFTQYAESMEGRVTISRNNAENTAYLQMNGLQPDDTAVYYCYLWTEGHNFWGQGTQVTVS
notes: also called Clone 173B1
For B6, the binding result in assay [2] is given as “binds”.

B7: 172P1D3 (VHH)
VHH: QVQLVESGGGLVQAGGSLRLSCAASGRITSYYGVGWFRQAPGKGREFVAVVTWNAGITFYADSVKGRFTISRDNAKNTVYLQMNGLKPEDTAVYYCAAGVFRARGYTLSGEYEYWGQGTQVTVS
notes: also called Clone 172P1D3
On to B7, for which the binding result in assay [1], in assay [2] and in assay [3] was “binds” each time.
